Values quoted from earlier work, collected in US20160058705A1, “COMPOSITIONS AND METHODS FOR TREATING CARDIOVASCULAR AND PULMONARY DISEASES AND DISORDERS WITH APELIN” (priority 2014, published 2016).

Settings: Japp et al. (2008), cited from earlier work

apelin
plasma half-life: less than 8 minutes
plasma half-life (listed as regular commercial apelin): ≤ 8 min

Where two headings read alike, the source gives them in different places.
